Species: Mus musculus
Experiment: Protective index (TD50/ED50) value in MES test in mice
Assay type: functional
Procedure, shortened: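 Phase II quantification in mice after ip dosing. ED50 (scMet or MES) measured at the time of peak effect. TD50 (rotorod neurologic deficit) measured at the time of peak neurologic deficit. Medians and 95% confidence limits by the Litchfield-Wilcoxon method. Protective index = TD50/ED50. Time of peak effect determined in the MES or scMet test.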

NC(=O)N1c2ccccc2C=Cc2ccccc21 [CARBAMAZEPINE]
PI: 8.1

— ChEMBL document CHEMBL1126893, “Synthesis and CLOGP correlation of imidooxy anticonvulsants” (J Med Chem, 1993)
